## OPERA 2.9 data: water solubility values

Water solubility is log10 of mol/L, nominally at 25 °C; higher is more soluble. Cells with "n/a" have no entry in this list.

compound	name	water solubility (log10 mol/L)
NCCOP(=O)(O)O	2-Aminoethyl dihydrogen phosphate	-0.292
CC(C)CCCCCCOC(=O)c1ccc(C(=O)OCCCCCCC(C)C)cc1	Bis(7-methyloctyl) benzene-1,4-dicarboxylate	-7.054
CCCS(=O)(=O)Nc1ccc(F)c(C(=O)c2cn(C(=O)c3c(Cl)cccc3Cl)c3ncc(-c4ccc(Cl)cc4)cc23)c1F	n/a	-6.458
CC(C)(C)C(CCC(=O)O)CC(=O)O (stereo unspecified)	3-tert-Butyladipic acid	-1.617
CCCCN(CCC#N)c1ccc(N=Nc2ccc([N+](=O)[O-])cc2)cc1	n/a	-7.699
C=C(C)C(=O)OC1CC(C)CC(C)(C)C1 (stereo unspecified)	3,3,5-Trimethylcyclohexyl 2-methylprop-2-enoate	-4.599
CC(=O)OC1CC2CC1C1CCCC21 (stereo unspecified)	Octahydro-4,7-methano-1H-inden-5-yl acetate	-3.338
O=C1CCc2[nH]c3ccccc3c2C1	1,2,4,9-Tetrahydro-3H-carbazol-3-one	-3.511
CCC(=O)O[C@@H]1C[C@H]2CC[C@]1(C)C2(C)C	Isobornyl propanoate	-4.026
CCCCCCCCCCOC(=O)C(C)O (stereo unspecified)	decyl lactate	-1.35
O=C1N=C(O)C2=C1CCCC2	3-Hydroxy-4,5,6,7-tetrahydro-1H-isoindol-1-one	-1.975
COc1ccc2cc(CCC(C)=O)ccc2c1	Nabumetone	-5.073
Cc1c2oc3c(C)ccc(C(=O)N[C@@H]4C(=O)N[C@H](C(C)C)C(=O)N5CCC[C@H]5C(=O)N(C)CC(=O)N(C)[C@@H](C(C)C)C(=O)O[C@@H]4C)c3nc-2c(C(=O)N[C@@H]2C(=O)N[C@H](C(C)C)C(=O)N3CCC[C@H]3C(=O)N(C)CC(=O)N(C)[C@@H](C(C)C)C(=O)O[C@@H]2C)c(N)c1=O	Actinomycin D	-4.798
NC(=O)Nc1cccc(Cl)c1	3-Chlorophenylurea	-2
O=P(O)(O)C(Sc1ccc(Cl)cc1)P(=O)(O)O	Tiludronic acid	-1.66
CCO[Si](CCCCl)(OCC)OCC	(3-Chloropropyl)(triethoxy)silane	-3.329
CCCCCCCC/C=C\CCCCCCCC(=O)NCCNC(=O)CCCCCCC/C=C\CCCCCCCC	9-Octadecenamide, N,N'-1,2-ethanediylbis-, (9Z,9'Z)-	-6.226
COc1cnc(-n2cnc(C)n2)c2c1c(C(=O)C(=O)N1CCN(C(=O)c3ccccc3)CC1)cn2COP(=O)(O)O	n/a	-0.368
Cc1cc(C(C)(C)C)c(O)c(C)c1Cn1c(=O)n(Cc2c(C)cc(C(C)(C)C)c(O)c2C)c(=O)n(Cc2c(C)cc(C(C)(C)C)c(O)c2C)c1=O	Cyanox CY 1790	-7.544
O=C(Cl)c1ccc(C(=O)Cl)cc1	1,4-Benzenedicarbonyl dichloride	-4.08
CC(C)OC(=O)[C@H](C)OC(=O)C(C)(C)C	(S)-1-Isopropoxy-1-oxo-2-propanyl pivalate	-2.643
Cn1cc(C(O)=Nc2ccccc2-c2cc(F)c(F)c(F)c2)c(C(F)F)n1	Fluxapyroxad	-5.04
COc1ccccc1OCC(O)COC(N)=O (stereo unspecified)	Methocarbamol	-1.251
CC(C)CCC(C)Nc1ccc(Nc2ccccc2)cc1 (stereo unspecified)	N-(5-Methyl-2-hexyl)-N'-phenyl-p-phenylenediamine	-5.625
C=CCCCCCCCC(=O)OC	methyl 9-decenoate	-4.373
CC(C)c1ccc2sc3ccccc3c(=O)c2c1	2-(Propan-2-yl)-9H-thioxanthen-9-one	-5.874
O=C=Nc1ccc(OP(=S)(Oc2ccc(N=C=O)cc2)Oc2ccc(N=C=O)cc2)cc1	Tris(4-isocyanatophenyl) thiophosphate	-6.492
COc1cccc(C(=O)Cl)c1C	Benzoyl chloride, 3-methoxy-2-methyl-	-2.664
O=C(O)C(=O)c1ccccc1C(=O)O	Phthalonic acid	0.521
Cc1oc2ccccc2c(=O)c1C	2,3-Dimethyl-4H-chromen-4-one	-2.065
C=C(C)C(=O)OCCOC(=O)C(=C)C	Ethylene glycol dimethacrylate	-2.397
CCCCC(CC)COC(=O)C1CCC(C(=O)OCC(CC)CCCC)CC1 (stereo unspecified)	Bis(2-ethylhexyl) cyclohexane-1,4-dicarboxylate	-6.926
CC(=O)CC(=O)C(=O)O	Acetylpyruvic acid	0.291
C=C(C)C(=O)OCCOCCOCCCC	2-(2-Butoxyethoxy)ethyl methacrylate	-1.985
Cc1ccc(S(=O)(=O)Nc2ccc(Nc3ccccc3)cc2)cc1	Benzenesulfonamide, 4-methyl-N-[4-(phenylamino)phenyl]-	-6.45
C[C@H](/C=C/[C@H](C)C(C)(C)O)[C@H]1CC[C@H]2/C(=C/C=C3C[C@@H](O)C[C@H](O)C3)CCC[C@]12C	Paricalcitol	-4.787

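OPERA's authors assembled the values from existing databases and did not measure them anew. One number stands for a compound and property, with no spread given. How each value was measured is not recorded, so precision varies. The measured form (salt, isomer or mixture) is not always the one drawn. Some upstream entries may be estimates or bounds without being marked so.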

Data: OPERA 2.9 data sets, kmansouri/OPERA on GitHub.